Reference: patent US20210292417A1, “HISTAMINE DIHYDROCHLORIDE COMBINATIONS AND USES THEREOF” (Immune Pharmaceuticals LTD., priority 2016, published 2021)

System: patient-derived NK cells
Assay: NK cell receptor expression after culture of PBMCs with IL-2
Format: cell-based, human
Conditions: PBMCs from CMML patients cultured 72h; IL-2 500 u/ml
Experimental: Immunophenotyping by flow cytometry. NK cell expression of activating receptors before and after cell culture was measured by flow cytometry in 10 CMML patients and 10 healthy age-matched controls. In these experiments, cells were cultured in 96-well plates for 3 days at a concentration of 1×10^6 cells per well in 200 μl with IL-2 (500 u/ml) present. Cells were then stained on days 1 and day 3 and analyzed using a 4-laser BD LSRFortessa SORP flow cytometer. NK cells were defined as CD37CD56+ cells. The analyses comprised the following receptors of relevance to NK cell activation or maturation: NKp30-PE (clone: AF29-4D12), NKp80-APC (clone: 4A4.D10) and DNAM-1-PE-Cy7 (clone: DX11), all from Miltenyi Biotec. NKp46-PE (clone: 9E2), NKG2D-PE-Cy7 (clone: 1D11), LFA-1b-APC (clone: 6.7), CD57-FITC (clone: HNK-1) were from BD Pharmingen. 2B4-FITC were from R&D systems and NKG2C-Pacific Blue (clone: MM0488-9R17) from Novus Biologicals.

IL-2: human recombinant IL-2 (aldesleukin)
expression of NKp30, NKp46 and DNAM1: significantly enhanced
